Here are results for 46 compounds from PubChem BioAssay AID624037 (The Scripps Research Institute Molecular Screening Center, 2012).

The chains behind the UniProt entries cited, without tags or fusion partners.
UniProt P08912, whole entry: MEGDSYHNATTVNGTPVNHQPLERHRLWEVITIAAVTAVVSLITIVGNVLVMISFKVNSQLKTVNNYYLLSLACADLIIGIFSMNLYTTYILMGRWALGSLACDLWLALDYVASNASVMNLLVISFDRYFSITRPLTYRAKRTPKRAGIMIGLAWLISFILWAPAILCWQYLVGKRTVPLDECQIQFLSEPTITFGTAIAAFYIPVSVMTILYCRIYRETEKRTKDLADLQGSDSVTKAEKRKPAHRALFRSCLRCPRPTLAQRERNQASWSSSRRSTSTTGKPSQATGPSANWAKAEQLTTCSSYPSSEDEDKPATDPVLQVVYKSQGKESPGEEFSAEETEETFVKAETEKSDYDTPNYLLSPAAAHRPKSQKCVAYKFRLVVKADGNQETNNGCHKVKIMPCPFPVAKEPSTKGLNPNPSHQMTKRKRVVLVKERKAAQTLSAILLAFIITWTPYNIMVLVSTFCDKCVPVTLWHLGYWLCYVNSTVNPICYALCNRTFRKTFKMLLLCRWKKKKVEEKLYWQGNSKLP

This is a selection; strong and weak results do not stand in their true shares. The source made the active and inactive calls.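 The calls were made as follows: active = activation above the run's mean over test compounds plus 3 SD (cut at about 23% in these data); inactive = the rest.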

The target in this experiment is Muscarinic acetylcholine receptor M5 (Homo sapiens) (UniProt P08912). The experiment is described as follows: CHRM5 activators raising intracellular calcium – CHO-K1 cells, Fluo-8 calcium fluorescence, primary screen (AID 624037).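 Also: signal is peak over basal fluorescence ratio across the kinetic read.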 The settings on record: CHO-K1 hM5 cells, at 3 µM, stronger effect = higher value, 0% DMSO wells, 100% maximal acetylcholine response. On the technique in general: Calcium flux is commonly read through the fluorescence of an indicator in the cells.
Take `CCOC(=O)c1ccc(NP(C)(=O)Oc2ccccc2)cc1` (stereo unspecified): the activation is inactive: 0.67%.
To `Cc1cc(C)cc(OP(C)(N)=O)c1` (stereo unspecified) belongs inactive: 3.99%.
To `COc1ccccc1OP(C)(=O)Nc1cc(Cl)ccc1C` (stereo unspecified) belongs inactive: -1.07%.
Consider `COc1ccc(OP(C)(=O)Nc2cccc(F)c2)cc1` (stereo unspecified), for which the activation is inactive: -1.67%.
Next, `COc1cc(C(=O)NCC2(N3CCOCC3)CCCCC2)ccc1OCC(C)C`: inactive: -0.88%; `O=[N+]([O-])c1cc([N+](=O)[O-])c(Nc2cccnc2)c([N+](=O)[O-])c1`: inactive: 9.75%; `O=[N+]([O-])c1ccc2c(c1)C=Nc1ccccc1O2`: inactive: -2.44%.
As for `CC(C)(C)c1ccc(OP(C)(=O)Nc2ccc(SC(F)(F)F)cc2)cc1` (stereo unspecified), the activation was inactive: -7.07%.
As to `Cc1cccc(C)c1OP(C)(N)=O` (stereo unspecified), the activation was inactive: 3.18%.
Regarding `CP(=S)(Nn1cnnc1)Oc1ccccc1` (stereo unspecified), the activation was inactive: 1.53%.
`CP(=O)(Nc1ccccc1Br)Oc1ccccc1` (stereo unspecified): the activation is inactive: -4.84%.
To `COc1ccccc1OP(C)(=O)Nc1ccccc1` (stereo unspecified) belongs inactive: 0.96%; to `CCCCOc1ccc(C(=O)NCC2(N3CCCCC3)CCCCC2)cc1OC`, inactive: -3.5%; to `O=[N+]([O-])c1cc([N+](=O)[O-])c(O)c([N+](=O)[O-])c1.c1ccc(Oc2ccncc2)cc1`, inactive: 5.89%.
Next, `CCOC(=O)c1ccc(NP(C)(=O)Oc2ccc(OC)cc2)cc1` (stereo unspecified): inactive: -2.04%; `CCOP(C)(=S)SCC(=O)NC(C)C(=O)O` (stereo unspecified): inactive: -2%.
Next, `CP(=O)(Nc1ccccn1)Oc1ccc(Cl)cc1` (stereo unspecified): inactive: 1.56%; `CP(=O)(Nc1ccc(SC(F)(F)F)cc1)Oc1ccc(Cl)cc1` (stereo unspecified): inactive: -0.72%; `Cc1cccc(C)c1OP(C)(=O)Nc1ccc(SC(F)(F)F)cc1` (stereo unspecified): inactive: -3.71%.
`Cc1ccc(Nc2c([N+](=O)[O-])cc([N+](=O)[O-])cc2[N+](=O)[O-])cc1`: the activation is inactive: 3.48%.
Take `CP(=O)(Oc1ccccc1)OC(c1ccccc1)C(F)(F)F` (stereo unspecified): the activation was inactive: -3.7%.
For `CCc1ccc(OP(C)(=O)N2CCN(c3ccc([N+](=O)[O-])cc3)CC2)cc1` (stereo unspecified), the activation was inactive: -0.21%.
On to `CP(=O)(NC(=O)Nc1ccccc1)Oc1ccccc1` (stereo unspecified), for which the activation is inactive: 1.55%.
On to `Cc1cc(C)cc(OP(C)(=O)Nc2ccc(SC(F)(F)F)cc2)c1` (stereo unspecified), for which the activation was inactive: 0.7%.
To `O=[N+]([O-])c1cc([N+](=O)[O-])c(-c2cnn(-c3ccccc3)c2)c([N+](=O)[O-])c1` belongs inactive: -3.02%; to `Cc1nc2ccc3ccccc3c2s1.O=[N+]([O-])c1cc([N+](=O)[O-])c(O)c([N+](=O)[O-])c1`, inactive: -10.9%; to `O=[N+]([O-])c1cc([N+](=O)[O-])c(-n2nnc3ccccc32)c([N+](=O)[O-])c1`, inactive: -0.07%.
To `CN(Cc1cccnc1)C(=O)COc1ccc(Cl)c(Cl)c1.O=[N+]([O-])c1cc([N+](=O)[O-])c(O)c([N+](=O)[O-])c1` belongs inactive: 2.11%.
To `CN1CCCCC1COC(=O)C1(O)c2ccccc2CCc2ccccc21` (stereo unspecified) belongs inactive: -8.98%; to `COc1ccccc1OP(C)(=O)Nc1c(C)cccc1C` (stereo unspecified), inactive: -0.43%.
Consider `COc1ccc(-c2ccccn2)cc1.O=[N+]([O-])c1cc([N+](=O)[O-])c(O)c([N+](=O)[O-])c1`, for which the activation was inactive: 2.2%.
To `CP(=O)(Nc1ccc(SC(F)(F)F)cc1)Oc1ccccc1` (stereo unspecified) belongs inactive: -4.55%; to `CCCOc1ccc(NP(C)(=O)Oc2ccc(Cl)cc2)cc1` (stereo unspecified), inactive: -5.34%; to `O=[N+]([O-])c1cc([N+](=O)[O-])c(Nc2nnnn2CCO)c([N+](=O)[O-])c1`, inactive: -0.07%.
In the case of `CC1=C2N=C(C=C3N=C(C(C)=C4[N-][C@@](C)([C@@H]5N=C1[C@](C)(CCC(=O)NC[C@@H](C)OP(=O)([O-])O[C@H]1[C@@H](O)[C@@H](n6cnc7cc(C)c(C)cc76)O[C@@H]1CO)[C@H]5CC(N)=O)[C@@](C)(CC(N)=O)[C@@H]4CCC(N)=O)[C@@](C)(CC(N)=O)[C@@H]3CCC(N)=O)C(C)(C)[C@@H]2CCC(N)=O.[C-]#N.[Co+3]`, the activation is inactive: 0.19%.
Next, `CN(C)C1(CNC(=O)c2ccc(S(C)(=O)=O)cc2)CCCCC1`: inactive: 1.88%; `CCOC(=O)C(CC)C1=NC(C)(C)Cc2ccccc21.O=[N+]([O-])c1cc([N+](=O)[O-])c(O)c([N+](=O)[O-])c1` (stereo unspecified): inactive: 0.77%.
Next, `CC1=NCCc2c1[nH]c1ccccc21.O=[N+]([O-])c1cc([N+](=O)[O-])c(O)c([N+](=O)[O-])c1`: inactive: -4.43%.
For the compound `O=C(O)c1cccc(Nc2c([N+](=O)[O-])cc([N+](=O)[O-])cc2[N+](=O)[O-])c1`, the activation was inactive: -0.42%.
To `Cc1ccc(C)c(NP(C)(=O)Oc2ccccc2)c1` (stereo unspecified) belongs inactive: 0.9%; to `CP(=O)(Nc1cccc(Br)c1)Oc1ccccc1` (stereo unspecified), inactive: 1.96%; to `Cc1cc(C)cc(OP(C)(=O)Nc2ccccn2)c1` (stereo unspecified), inactive: 0.84%.
For `COc1cc(C(=O)NCC2(N3CCOCC3)CCCCC2)cc(Cl)c1OC(C)C`, the activation was inactive: -3.09%.
To `COc1ccccc1OP(C)(=O)Nc1cccc(Br)c1` (stereo unspecified) belongs inactive: -4.88%; to `CCOC(=O)c1ccc(NP(C)(=O)Oc2cc(C)cc(C)c2)cc1` (stereo unspecified), inactive: -0.87%; to `Cc1cc(C)cc(OP(C)(=O)Nc2ccc(C)cc2C)c1` (stereo unspecified), inactive: -0.83%.
